Laboratory results as given in US20260258474A1.
pKd: −log10 of the molar value.

Key:
[1] = target: HER2 tyrosine kinase receptor, endogenous protein of BT-474 / MCF7 cells (UniProt P04626); assay: apparent Kd; compartmentalized bi-component (PICO) dPCR assay, antibody titration on BT-474 cell lysate, recursive fit
[2] = target: HER2 tyrosine kinase receptor, endogenous protein of BT-474 / MCF7 cells (UniProt P04626); assay: apparent Kd, determined according to Example 6 (bi-component dPCR assay)
[3] = target: HER2 tyrosine kinase receptor, endogenous protein of BT-474 / MCF7 cells (UniProt P04626); assay: apparent Kd ('exemplary Kds'), determined see Example 6 (bi-component dPCR assay)

Row | Substance | pKd [1] | pKd [2] | pKd [3]
1 | Pertuzumab (PTZ), recombinant humanized monoclonal anti-HER2 antibody, conjugated with a DNA oligonucleotide label | 10.03 | 10.03 | 10.13
2 | Trastuzumab (TTZ), recombinant humanized monoclonal anti-HER2 antibody, conjugated with a DNA oligonucleotide label | – | 10.31 | –
